Literature values in patent US20060234299A1, “Protein scaffolds and uses thereof” (Avidia Research Institute, priority 2004, published 2006).

Conditions: commercial drugs

Row | Substance | Human T½
1 | Rebif: rIFN-b | 69 h
2 | Pegasys: rIFN-a-PEG | 78 h
3 | Herceptin: Her2 Antibody | 144 h
